One block for each molecule: values may come before it.
How the values were obtained:
E. coli His6-LpxD = E. coli His6-LpxD (Escherichia coli, UniProt P21645); details: read-out: LpxD Kd, competition binding; pH 8
[1] = target: T1, E. coli His6-LpxD (UDP-3-O-(R-3-hydroxyacyl)glucosamine N-acyltransferase) (E. coli, UniProt P21645 1-341); assay: fluorescence polarisation
T1 sequence (looked up): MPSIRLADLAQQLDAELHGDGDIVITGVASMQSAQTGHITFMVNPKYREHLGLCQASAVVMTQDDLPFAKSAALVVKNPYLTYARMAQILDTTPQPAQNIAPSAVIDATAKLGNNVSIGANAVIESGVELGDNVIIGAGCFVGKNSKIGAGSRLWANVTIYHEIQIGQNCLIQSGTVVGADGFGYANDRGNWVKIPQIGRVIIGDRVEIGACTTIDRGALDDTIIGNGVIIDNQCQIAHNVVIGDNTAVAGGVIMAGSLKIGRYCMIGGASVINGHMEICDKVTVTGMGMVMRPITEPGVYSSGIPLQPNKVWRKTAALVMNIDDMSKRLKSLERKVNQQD

Molecule: R-3-hydroxymyristoyl-ACP
Kd (E. coli His6-LpxD): 8.8 ± 0.7 µM

Kd [1]: 8.8 ± 0.7 µM
B1: R-3-hydroxymyristoyl-ACP (acyl carrier protein) (natural protein, UniProt P0A6A8 1-78, looked up)
chain: MSTIEERVKKIIGEQLGVKQEEVTNNASFVEDLGADSLDTVELVMALEEEFDTEIPDEEAEKITTVQAAIDYINGHQA
modifications: R-3-hydroxymyristoyl group on ACP (acyl-ACP)
